# Values joined by “and” are separate entries in the source; they are usually repeats but may differ in a detail not shown here. Equal values may be shown once. For some assays here: Shown are results outside the selection of hits, which stands elsewhere. Records with an inconclusive call do not appear. This is a selection; strong and weak results do not stand in their true shares. Active and inactive are the calls of the source. Unless noted, the call rests on the fitted dose curve; in most records, active means well fitted inhibition curve with a large enough effect in the repeat runs (not every such curve was filed as active); inconclusive means weak or mixed curves; inactive means flat fitted curve, though single readings scatter.
# Sequences of proteins named here, by UniProt entry; tags and fusion partners are left off. A change or cut given only in a name is not applied to a line headed by its entry.
# UniProt Q92731, whole entry, looked up: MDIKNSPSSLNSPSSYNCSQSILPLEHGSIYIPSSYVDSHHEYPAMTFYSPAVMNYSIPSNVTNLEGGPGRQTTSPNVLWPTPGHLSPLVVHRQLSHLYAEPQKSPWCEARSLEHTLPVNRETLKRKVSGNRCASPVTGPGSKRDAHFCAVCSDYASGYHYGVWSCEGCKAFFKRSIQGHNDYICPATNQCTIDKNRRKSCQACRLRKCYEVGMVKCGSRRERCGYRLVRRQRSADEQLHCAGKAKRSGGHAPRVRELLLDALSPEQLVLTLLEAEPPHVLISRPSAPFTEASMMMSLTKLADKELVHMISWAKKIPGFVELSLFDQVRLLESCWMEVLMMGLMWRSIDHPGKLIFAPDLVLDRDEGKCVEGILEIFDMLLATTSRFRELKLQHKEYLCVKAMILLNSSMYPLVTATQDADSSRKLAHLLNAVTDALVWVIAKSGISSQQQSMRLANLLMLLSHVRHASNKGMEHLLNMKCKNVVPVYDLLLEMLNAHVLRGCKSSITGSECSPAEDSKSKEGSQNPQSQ
# UniProt P34981: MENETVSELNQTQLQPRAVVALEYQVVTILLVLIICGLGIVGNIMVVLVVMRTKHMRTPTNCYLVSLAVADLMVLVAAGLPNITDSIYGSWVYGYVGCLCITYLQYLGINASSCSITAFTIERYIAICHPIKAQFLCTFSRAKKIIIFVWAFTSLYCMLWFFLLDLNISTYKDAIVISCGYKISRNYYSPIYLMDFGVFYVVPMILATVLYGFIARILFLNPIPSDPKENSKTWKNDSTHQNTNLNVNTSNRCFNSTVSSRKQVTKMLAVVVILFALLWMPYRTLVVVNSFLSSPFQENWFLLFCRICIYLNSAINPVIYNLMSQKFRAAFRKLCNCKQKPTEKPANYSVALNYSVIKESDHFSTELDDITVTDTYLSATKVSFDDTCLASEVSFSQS
# UniProt P03372, whole entry, looked up: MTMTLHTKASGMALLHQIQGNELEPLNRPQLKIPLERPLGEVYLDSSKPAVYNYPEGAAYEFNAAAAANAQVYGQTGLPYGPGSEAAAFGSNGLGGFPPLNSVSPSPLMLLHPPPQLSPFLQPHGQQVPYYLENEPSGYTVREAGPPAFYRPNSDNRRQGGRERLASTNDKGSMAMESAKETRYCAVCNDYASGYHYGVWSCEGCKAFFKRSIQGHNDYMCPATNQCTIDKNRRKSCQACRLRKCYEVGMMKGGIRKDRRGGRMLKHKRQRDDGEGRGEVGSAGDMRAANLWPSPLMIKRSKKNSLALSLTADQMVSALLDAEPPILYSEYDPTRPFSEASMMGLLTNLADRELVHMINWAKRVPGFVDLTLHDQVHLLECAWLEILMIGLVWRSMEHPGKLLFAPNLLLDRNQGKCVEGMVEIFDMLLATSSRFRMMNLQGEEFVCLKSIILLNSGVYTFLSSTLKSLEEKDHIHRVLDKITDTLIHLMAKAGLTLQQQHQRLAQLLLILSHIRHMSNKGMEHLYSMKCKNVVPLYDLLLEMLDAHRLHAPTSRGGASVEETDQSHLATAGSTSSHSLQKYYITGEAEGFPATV
# UniProt Q96RI1: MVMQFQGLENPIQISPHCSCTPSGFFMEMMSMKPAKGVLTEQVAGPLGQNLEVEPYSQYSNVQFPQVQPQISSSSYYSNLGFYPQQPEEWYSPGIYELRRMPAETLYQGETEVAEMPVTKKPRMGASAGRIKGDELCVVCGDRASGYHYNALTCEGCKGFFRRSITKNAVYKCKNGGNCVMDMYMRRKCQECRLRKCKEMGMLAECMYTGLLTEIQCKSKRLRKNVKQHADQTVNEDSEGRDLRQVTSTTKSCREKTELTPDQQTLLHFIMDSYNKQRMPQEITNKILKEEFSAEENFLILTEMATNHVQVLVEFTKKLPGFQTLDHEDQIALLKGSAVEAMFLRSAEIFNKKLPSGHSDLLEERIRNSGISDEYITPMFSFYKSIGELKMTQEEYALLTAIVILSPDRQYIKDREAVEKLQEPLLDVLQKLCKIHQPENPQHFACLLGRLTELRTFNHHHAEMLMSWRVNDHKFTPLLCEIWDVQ
# Legend:
# [1] = target: Estrogen receptor beta (Homo sapiens) (UniProt Q92731); test: qHTS assay to identify small molecule antagonists of the estrogen receptor beta (ER-beta) signaling pathway (AID 1259378; active means well fitted inhibition curve with a large enough effect in the signal ratio in the repeat runs, not every such curve was filed as active; the % refers to the signal ratio; further: potency means the concentration at half of the fitted maximal effect)
# Method in brief: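 ER-beta-UAS-bla HEK293T cells in 2% charcoal-stripped FBS medium treated with compound plus 1nM final 17-beta-estradiol for 16 hr at 37C. Beta-lactamase reporter read by FRET substrate fluorescence after 2 hours at room temperature.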
# [2] = target: Thyrotropin-releasing hormone receptor (Homo sapiens) (UniProt P34981); test: qHTS assay to identify small molecule antagonists of the thyrotropin-releasing hormone receptor (TRHR) signaling pathway (AID 1346877); settings: TRHR-HEK293, TRH-induced calcium fluorescence, antagonist mode
# [3] = target: Estrogen receptor (Homo sapiens) (UniProt P03372); test: qHTS assay to identify small molecule agonists of the estrogen receptor alpha (ER-alpha) signaling pathway (AID 743075; calls by dose curve;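 further: HEK293 GripTite cells with ER-alpha and UAS-driven beta-lactamase reporter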)
# [4] = target: Bile acid receptor (Homo sapiens) (UniProt Q96RI1); test: qHTS assay to identify small molecule antagonists of the farnesoid-X-receptor (FXR) signaling pathway (AID 743217; active means well fitted inhibition curve with a large enough effect in the signal ratio in the repeat runs, not every such curve was filed as active; the % refers to the signal ratio); settings: HEK293T FXR-UAS-bla, beta-lactamase ratio, CDCA-stimulated, 16 h; at 62.6 µM (top of the series)
# Method in brief: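 Antagonist mode against 50 uM (final) chenodeoxycholic acid stimulation in FXR-bla HEK 293T cells, 16 h at 37 °C. Inhibition detected as reduced beta-lactamase activity via LiveBLAzer B/G FRET fluorescence after 2 h at room temperature.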
# [5] = target: Bile acid receptor (Homo sapiens) (UniProt Q96RI1); test: qHTS assay to identify small molecule agonists of the farnesoid-X-receptor (FXR) signaling pathway (AID 743220; active means well fitted activation curve with a large enough effect in the signal ratio in the repeat runs, not every such curve was filed as active; the % refers to the signal ratio); settings: HEK293T FXR-UAS-bla, beta-lactamase FRET ratio, 16 h; at 62.6 µM (top of the series)
# [6] = target: Estrogen receptor (Homo sapiens) (UniProt P03372); test: qHTS assay to identify small molecule agonists of the estrogen receptor alpha (ER-alpha) signaling pathway in the presence of an antagonist (AID 1259383; calls by dose curve; further: top concentration of the series differs between compounds; nearly all actives have a fitted effect of over 15% in size)
# [7] = target: Estrogen receptor beta (Homo sapiens) (UniProt Q92731); test: qHTS assay to identify small molecule agonists of the estrogen receptor beta (ER-beta) signaling pathway (AID 1259377; active means well fitted activation curve with a large enough effect in the signal ratio in the repeat runs, not every such curve was filed as active; the % refers to the signal ratio); settings: ER-beta-UAS-bla HEK293T, beta-lactamase FRET ratio, 16 h; at 92.4 µM (top of the series) unless noted
# [8] = target: Estrogen receptor (Homo sapiens) (UniProt P03372); test: qHTS assay to identify small molecule antagonists of the estrogen receptor alpha (ER-alpha) signaling pathway (AID 743069; active means well fitted curve in the direction sought with a large enough effect in the signal ratio in the repeat runs, not every such curve was filed as active; the % refers to the signal ratio)
# [9] = target: Estrogen receptor (Homo sapiens) (UniProt P03372); test: qHTS assay to identify small molecule antagonists of the estrogen receptor alpha (ER-alpha) signaling pathway using the BG1 cell line in the presence of 0.1 nM 17-beta-estradiol (AID 1259244; active means well fitted curve in the direction sought with a large enough effect in the repeat runs; an effect the other way counts as inactive or inconclusive; further: nearly all actives have a fitted effect of over 50% in size); settings: VM7Luc4E2 (BG1) ERE-luciferase, antagonist mode, 0.1 nM E2, 22 h
# [10] = target: Estrogen receptor (Homo sapiens) (UniProt P03372); test: qHTS assay to identify small molecule agonists of the estrogen receptor alpha (ER-alpha) signaling pathway using the BG1 cell line (AID 743079; active means well fitted curve in the direction sought with a large enough effect in the repeat runs; an effect the other way counts as inactive or inconclusive; further: nearly all actives have a fitted effect of over 20% in size)
# On the % scale 0 is the no-effect control and ±100 the full control effect.
smiles,measurement,setting,value
O=S(=O)(O)c1ccc(O)c2ncccc12,Potency,[1],inactive
CSCC[C@H](NC(=O)[C@H](Cc1c[nH]c2ccccc12)NC(=O)CCNC(=O)OC(C)(C)C)C(=O)N[C@@H](CC(=O)O)C(=O)N[C@@H](Cc1ccccc1)C(N)=O,"activity, negative = inhibition",[2]; at 23.6 µM (top of the series),inactive: -2.22%
Nc1ccc(N)c(Cl)c1,Potency,[3],inactive
same,"activity change, negative = inhibition",[4],inactive: 1.3%
same,activation,[5],inactive: -0.846% and inactive: 2.1%
same,Potency,[6],inactive
Cc1cc(C2CCCCC2)n(O)c(=O)c1,activation,[7],inactive: -2.64% [at 42.5 µM]
CCCCCCCCCCCC[N+](C)(C)C,Potency,[1],active: 34.4 µM
Nc1cc(S(=O)(=O)O)cc2cc(S(=O)(=O)O)cc(O)c12,Potency,[1],inactive
CCN(CC)CCOCCOC(=O)C1(c2ccccc2)CCCC1,"activity, negative = inhibition",[2]; at 23.6 µM (top of the series),inactive: -2.95%
CC1=NS(=O)(=O)c2cc(Cl)ccc2N1,"activity, negative = inhibition",[2]; at 23.6 µM (top of the series),inactive: 4.92%
Cc1cccc(C)c1OCC(=O)N[C@@H](Cc1ccccc1)[C@@H](O)C[C@H](Cc1ccccc1)NC(=O)[C@H](C(C)C)N1CCCNC1=O,"activity, negative = inhibition",[2]; at 23.6 µM (top of the series),inactive: -11.6%
CN1CCc2cccc3c2[C@H]1Cc1ccc(O)c(O)c1-3,Potency,[1],active: 24.6 µM and active: 23.7 µM
O=C1CC[C@H](C(=O)N2CCCCC2)N1,"activity, negative = inhibition",[2]; at 23.6 µM (top of the series),inactive: 0.522%
CCCCCCCCCCCCCCCCOP(=O)([O-])OCC[N+](C)(C)C,"activity, negative = inhibition",[2]; at 23.6 µM (top of the series),inactive: -4.89%
CC(COc1ccccc1)NN (stereo not drawn),"activity, negative = inhibition",[2]; at 23.6 µM (top of the series),inactive: -4.43%
CCN1CCC[C@H]1CNC(=O)c1c(OC)ccc(Br)c1OC,"activity, negative = inhibition",[2]; at 23.6 µM (top of the series),inactive: 0.133%
C#C[C@]1(O)CC[C@H]2[C@@H]3CCC4=CC(=O)CC[C@@H]4[C@H]3CC[C@@]21C,"activity, negative = inhibition",[2]; at 23.6 µM (top of the series),inactive: -8.15%
same,"activity, negative = inhibition",[2]; at 51.3 µM (top of the series),inactive: 1.43%
C[n+]1ccn(CCO)c1,Potency,[8],inactive
same,Potency,[3],inactive
same,"activity change, negative = inhibition",[9]; at 92.4 µM (top of the series),inactive: 14.1% and inactive: 2.64%
same,Potency,[6],inactive
NC[C@H](O)c1ccc(O)c(O)c1,"activity, negative = inhibition",[2]; at 23.6 µM (top of the series),inactive: -2.49%
same,"activity, negative = inhibition",[2]; at 51.3 µM (top of the series),inactive: 4.21%
Nc1nc2c(ncn2COCCO)c(=O)[nH]1,"activity, negative = inhibition",[2]; at 23.6 µM (top of the series),inactive: 6.59%
CN1C(CCl)Nc2cc(Cl)c(S(N)(=O)=O)cc2S1(=O)=O (stereo not drawn),"activity, negative = inhibition",[2]; at 23.6 µM (top of the series),inactive: -0.456%
N[C@@H](CCC(=O)O)C(=O)O,Potency,[1],inactive
[Cl][Dy]([Cl])[Cl],Potency,[1],inactive
CC(C)(C)NC(=O)[C@@H]1CN(Cc2cccnc2)CCN1C[C@@H](O)C[C@@H](Cc1ccccc1)C(=O)N[C@H]1c2ccccc2C[C@H]1O,"activity change, negative = inhibition",[4],inactive: -0.0612% and inactive: 0.774%
same,activation,[5],inactive: 0.674% and inactive: -0.303%
same,Potency,[1],inactive
CC(C)NCC(O)c1cc(O)cc(O)c1 (stereo not drawn),Potency,[8],inactive
same,Potency,[3],inactive
same,Potency,[10],inactive
same,"activity change, negative = inhibition",[9]; at 42.5 µM (top of the series),inactive: 1.79%
same,Potency,[6],inactive
CCN(CC)C(C)CN1c2ccccc2Sc2ccccc21 (stereo not drawn),"activity, negative = inhibition",[2]; at 23.6 µM (top of the series),inactive: 1.66%

# Source: PubChem BioAssay (Tox21)
